An excerpt weighted towards active compounds, which were near 2.3% of everything screened.
Nrf2 activator = Nrf2 pathway activation. AREc32 ARE-luciferase reporter (MCF7-derived line), luminescence, 24 h. Potency, µM (titrated, usually from 46.1 µM), for inactives: at the top dose activation, actives largely listed as activators. actives 0.31% (n = 410,000). AID 624171; further: potency means the concentration at half of the fitted maximal effect; % of control where 0% means no effect; nearly all actives have a fitted effect of over 65% in size
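For detection, Steady-Glo was added and plates sat 30 min at RT; before that, AREc32_Fluc cells grown overnight in OPTI-MEM/5% FBS had been treated with 23 nL compound for 24 hr at 37 deg C.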
Mito fusion yeast = inhibitors of mitochondrial division or activators of mitochondrial fusion; Potency, µM (series often up to 46.1 µM), inactives show top-dose growth rescue (activation), most hits filed as activators; actives 0.23% (n = 320,000); S. cerevisiae fusion-defective mutant growth rescue, CellTiterGlo 48 h; AID 485298; further: potency means the concentration at half of the fitted maximal effect; % of control where 0% means no effect; nearly all actives have a fitted effect of over 45% in size
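Compounds are tested for their ability to restore growth of mitochondrial fusion-defective yeast strains at non-permissive 37C in YPEG medium over 48 hours. Viability is quantified by luciferase luminescence.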
miR-21 reporter = miR-21 reporter, rising signal. HeLa miR-21 FLuc reporter, luciferase, 48 h. Potency, µM (highest dose often 38.3 µM), for the others: at the highest dose reporter change, positive = more light. 340,000 tested, under 10 active. AID 2288; active = well fitted rising curve with a large enough effect; inconclusive = small, poorly fitted or top-dose-only effect; inactive = no such curve, though single readings can be large or run the other way;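 further: % of control where 0% means no effect; miR-21 action dims this reporter so a rising signal means less miR-21 action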
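HeLa miR-21-FLuc reporter line, endogenous miR-21; 2000 cells/well in DMEM/10% FBS; compound titration up to ~40uM final, 48 h, 37 degree Celsius; luciferase detection reagent, 15 min lysis, CCD luminescence.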
Nrf2 inh = blocks Nrf2 signaling | A549 ARE-Fluc reporter, luciferase luminescence, 18-24 h | Potency, µM (series often up to 46 µM), for the others: at the highest dose activity change, negative = inhibition, actives largely listed as inhibitors | actives 2.1% (n = 360,000) | AID 504444; further: potency means the concentration at half of the fitted maximal effect; on the % scale 0 is the no-effect control and ±100 the full control effect; nearly all actives have a fitted effect of over 60% in size
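Reporter: ARE-Fluc in A549. Exposure: 18-24 h, 37 °C, 5% CO2, 5% FBS OPTI-MEM. Readouts: fluorescent cytotoxicity (CellTiter-Fluor), then luminescent Nrf2 signal after BugLite.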
A549 tox = kills or reduces viability of A549 cells in Nrf2 counter-screen; actives 0.16% (n = 390,000); A549 ARE-Fluc cells, CellTiter-Fluor viability, 18-24 h; Potency, µM (highest dose often 46 µM), inactives show at the highest dose activity change, negative = cytotoxicity, most hits filed as inhibitors; further: potency means the concentration at half of the fitted maximal effect; on the % scale 0 is the no-effect control and ±100 the full control effect
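A549 ARE-Fluc cells in 5% FBS OPTI-MEM, 5000 cells/well, rested 2 h then exposed to compounds in concentration-response for 18-24 h at 37 °C. Viability by CellTiter-Fluor fluorescence (Ex 405/Em 525) after 30 min; luciferase luminescence (BugLite, 15 min, RT) read afterwards.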
Starred values were filed as active, the others as inactive; ? = inconclusive; . = not tested or not shown; [ ] = remark or other dose. Unless noted, the call rests on the fitted dose curve; in most records, active means well fitted curve in the direction sought with a large enough effect; inconclusive means small, poorly fitted or top-dose-only effect, or another doubt; inactive means no such curve, though single readings can be large; an effect the other way counts as inactive or inconclusive.

| SMILES | Nrf2 activator | Mito fusion yeast | miR-21 reporter | Nrf2 inh | A549 tox |
| --- | --- | --- | --- | --- | --- |
| Cc1[nH]nc2c1C(c1ccc(-c3ccc(Cl)cc3)o1)C(C#N)=C(N)O2 (stereo unspecified) | 16µM* | 11% | -4% | 20% | -10% |
| CC(C)N(Cc1nccn1C)C(=O)c1cc(COc2ccc3ncccc3c2)on1 | 0% | 3% | 14% | 13µM* | -12% |
| CCN1CCN(C(=O)c2cc(COc3ccc4ncccc4c3)on2)CC1 | 0% | -6% | 15% | 21µM* | -12% |
| CCN(CC)C(=O)C1CCCN(C(=O)c2cc(COc3ccc4ncccc4c3)on2)C1 (stereo unspecified) | 2% | -1% | 24% | ? | 1% |
| O=C(NCc1cccc(Cl)c1)c1cc(COc2ccc3ncccc3c2)on1 | 4% | 8% | 23% | 10µM* | -26% |
| Cc1ccc(F)cc1CNC(=O)c1cc(COc2ccc3ncccc3c2)on1 | 2% | -1% | 19% | ? | 2% |
| CCCN1CCN(C(=O)c2cc(COc3ccc4ncccc4c3)on2)CC1 | 2% | -5% | 12% | 5.2µM* | -18% |
| N#Cc1nc(-c2ccco2)oc1N1CCOCC1 | 13µM* | 2% | -4% | . | -2% |
| COCCNC(=O)c1cccc(Nc2nc(-c3ccccc3)c3cc(Cl)ccc3n2)c1 | 2% | ? | 7% | 15µM* | ? |
| CC(=O)NNc1nc(-c2ccccc2)c2cc(Cl)ccc2n1 | -1% | . | . | . | . |
| CCC(C(=O)Nc1ccccc1C(=O)OC)n1c(C)c2cnn(-c3ccccc3)c(=O)c2c1C (stereo unspecified) | 1% | . | 15% | ? | -1% |
| CN(C)S(=O)(=O)c1cccc(NC(=O)c2ccc3nccnc3c2)c1 | 3% | 16% | 14% | 5.8µM* | ? |
| Cc1cc(NC(=O)c2cccc(S(=O)(=O)N(C)C)c2)n(-c2ccccn2)n1 | 0% | 9% | 3% | 26µM* | -12% |
| Cc1cc(NC(=O)c2cccc(S(=O)(=O)N3CCCCCC3)c2)n(-c2ccccn2)n1 | 0% | -2% | -1% | . | ? |
| CC(=O)c1cccc(NC(=O)c2cccc(S(=O)(=O)N(C)C)c2)c1 | 3% | -4% | -2% | 13% | -5% |
| CCOC(=O)c1ccccc1OCc1cc(C2Nc3ccccc3C(=O)N2c2cccc3ccccc23)ccc1OC (stereo unspecified) | . | . | . | ? | 2% |
| COc1ccc(OC)c(C2=Nn3c(nnc3-c3ccccc3O)SC2)c1 | . | . | . | 12% | 11% |
| O=c1c2cc([N+](=O)[O-])cc([N+](=O)[O-])c2[nH]n1-c1ccccc1 | 3% | -21% | -2% | 2% | 16µM* |
| O=S(=O)(c1cccc(F)c1)N1CCN(S(=O)(=O)c2ccc3c(c2)OCCO3)CC1 | . | . | . | 5% | 6% |
| COc1ccc(Cl)cc1C(=O)NCc1nnnn1-c1ccccc1 | 3% | . | -7% | . | -1% |
| Cc1ccc(NC(=O)c2cc(S(=O)(=O)NCCC3=CCCCC3)ccc2F)cc1 | 4% | 17% | 30% | 15µM* | ? |
| CCN(CC)/C(Sc1ccccc1)=C(\C(Cl)=C(Cl)Cl)[N+](=O)[O-] | 5% | 1%[9.22 µM] | 4% | -3% | -1% |
| O=[N+]([O-])/C(C(Cl)=C(Cl)Cl)=C(\Sc1ccccc1)N1CCCCC1 | 11µM* | -4% | 10% | ? | 13% |
| COC(=O)c1[nH]c2ccc(C)cc2c1NC(=O)CN1CCN(c2ccccc2)CC1 | 0% | ? | 3% | 18µM* | -19% |
| COC(=O)c1[nH]c2ccc(C)cc2c1NC(=O)CN1CCN(Cc2ccccc2)CC1 | 5% | 1% | 16% | -8% | -9% |
| COC(=O)c1ccc(NC(=O)c2cc3cc(C)ccc3n2C)cc1 | 0% | . | -9% | 5% | -2% |
| Cc1ccccc1N1C(=O)c2ccccc2N2C(=O)c3ccccc3C12 (stereo unspecified) | 0% | 14µM* | 11% | . | -7% |
| O=C1c2ccccc2N2C(=O)c3ccccc3C2N1O (stereo unspecified) | 9% | 2% | -5% | 0% | -6% |
| Cc1[nH]c2ccc(C(=O)N3CCN(c4cccc(Cl)c4)CC3)cc2c1C | -1% | -5% | 13% | ? | ? |

Some of these compounds in order of SMILES length, ascending:
| SMILES | Nrf2 activator | Mito fusion yeast | miR-21 reporter | Nrf2 inh | A549 tox |
| --- | --- | --- | --- | --- | --- |
| CC(=O)NNc1nc(-c2ccccc2)c2cc(Cl)ccc2n1 | -1% | . | . | . | . |
| COc1ccc(OC)c(C2=Nn3c(nnc3-c3ccccc3O)SC2)c1 | . | . | . | 12% | 11% |
| CC(C)N(Cc1nccn1C)C(=O)c1cc(COc2ccc3ncccc3c2)on1 | 0% | 3% | 14% | 13µM* | -12% |

One compound at a time (already shown). Order of screens: Nrf2 activator | Mito fusion yeast | miR-21 reporter | Nrf2 inh | A549 tox
COCCNC(=O)c1cccc(Nc2nc(-c3ccccc3)c3cc(Cl)ccc3n2)c1 is listed with 2% | ? | 7% | 15µM* | ?
Cc1[nH]c2ccc(C(=O)N3CCN(c4cccc(Cl)c4)CC3)cc2c1C is listed with -1% | -5% | 13% | ? | ?
